The target of this test is MuRF1/telethonin complex co-expressed in yeast from pBridge::MuRF1/telethonin (rat) (UniProt Q91Z63). Description: yeast three-hybrid.

Protein sequences, listed by entry. Tags and fused reporters are not part of them.
UniProt Q91Z63, whole entry, looked up: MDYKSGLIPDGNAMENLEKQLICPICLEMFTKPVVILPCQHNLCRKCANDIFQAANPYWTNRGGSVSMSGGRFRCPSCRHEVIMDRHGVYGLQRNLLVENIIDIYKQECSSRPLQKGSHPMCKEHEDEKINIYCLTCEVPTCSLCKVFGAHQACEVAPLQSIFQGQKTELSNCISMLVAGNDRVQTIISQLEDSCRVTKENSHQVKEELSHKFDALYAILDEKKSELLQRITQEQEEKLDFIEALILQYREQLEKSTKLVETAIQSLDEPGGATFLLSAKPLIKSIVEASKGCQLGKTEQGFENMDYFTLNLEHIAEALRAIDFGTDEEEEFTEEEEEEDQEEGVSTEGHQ
UniProt P68037, whole entry: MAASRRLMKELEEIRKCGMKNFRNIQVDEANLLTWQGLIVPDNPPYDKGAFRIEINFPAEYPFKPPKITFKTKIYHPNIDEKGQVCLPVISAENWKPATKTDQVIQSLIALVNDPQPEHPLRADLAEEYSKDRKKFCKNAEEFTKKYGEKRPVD

The substance “UBE2L3 fused to the activation domain of GAL4 (from UniProt P68037 1-154) (enzyme)” returned a percent positive clones of 81%.

Source of the values: PMC5803617 (Journal of Cachexia, Sarcopenia and Muscle, 2017).
